pIC50: −log10 of the molar value.
Columns and labels:
Human plasma kallikrein = Human plasma kallikrein (Homo sapiens, UniProt P03952); test: Plasma Kallikrein Assay; conditions: read-out: Plasma Kallikrein IC50; purified Human plasma kallikrein 0.5 nM, substrate Acetyl-K-P-R-AFC, pH 7.4
Experimental: The effectiveness of a compound of the present invention as an inhibitor of plasma kallikrein can be determined using a relevant purified serine protease, and an appropriate synthetic substrate. The rate of hydrolysis of the chromogenic or fluorogenic substrate by the relevant serine protease was measured both in the absence and presence of compounds of the present invention. Assays were conducted at rt or at 37° C. […] A decrease in the rate of fluorescence change in the presence of inhibitor is indicative of enzyme inhibition. Such methods are known to one skilled in the art. The results of this assay are expressed as the half-maximal inhibitory concentrations (IC50), or the inhibitory constant, Ki. […]
Activity assays were performed by diluting a stock solution of substrate at least tenfold to a final concentration ≤0.2 Km into a solution containing enzyme or enzyme equilibrated with inhibitor. Times required to achieve equilibration between enzyme and inhibitor were determined in control experiments. The reactions were performed under linear progress curve conditions and fluorescence increase measured at 405 Ex/510 Em nm. […] IC50 was determined by inflection point from a four parameter logistic curve fit. Ki was calculated using the Cheng Prusoff equation, Ki=IC50/(1+([S]/Km)).

Chains of the proteins cited; added tags and fusions are not shown. Residues count along the entry.
UniProt P03952, 391-638 limits assumed: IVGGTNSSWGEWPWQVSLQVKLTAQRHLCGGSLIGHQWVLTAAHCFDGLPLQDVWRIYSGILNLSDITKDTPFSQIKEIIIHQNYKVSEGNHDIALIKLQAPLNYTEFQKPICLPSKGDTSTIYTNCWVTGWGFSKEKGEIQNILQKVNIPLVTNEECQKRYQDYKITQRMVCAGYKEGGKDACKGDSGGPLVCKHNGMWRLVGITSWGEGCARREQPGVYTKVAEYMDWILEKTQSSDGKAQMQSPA
UniProt P03952, 20-390 partner limits assumed: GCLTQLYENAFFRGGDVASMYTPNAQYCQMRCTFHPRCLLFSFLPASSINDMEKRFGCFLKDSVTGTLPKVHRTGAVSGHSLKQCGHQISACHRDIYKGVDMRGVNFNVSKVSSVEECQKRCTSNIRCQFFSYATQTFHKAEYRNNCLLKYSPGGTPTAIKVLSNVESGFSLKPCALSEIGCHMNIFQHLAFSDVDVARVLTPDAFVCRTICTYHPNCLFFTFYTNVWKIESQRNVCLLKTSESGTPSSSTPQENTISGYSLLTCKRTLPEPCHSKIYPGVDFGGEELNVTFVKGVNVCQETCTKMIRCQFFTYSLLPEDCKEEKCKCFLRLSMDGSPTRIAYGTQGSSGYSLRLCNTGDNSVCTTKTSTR
UniProt P03951, 388-625 limits assumed: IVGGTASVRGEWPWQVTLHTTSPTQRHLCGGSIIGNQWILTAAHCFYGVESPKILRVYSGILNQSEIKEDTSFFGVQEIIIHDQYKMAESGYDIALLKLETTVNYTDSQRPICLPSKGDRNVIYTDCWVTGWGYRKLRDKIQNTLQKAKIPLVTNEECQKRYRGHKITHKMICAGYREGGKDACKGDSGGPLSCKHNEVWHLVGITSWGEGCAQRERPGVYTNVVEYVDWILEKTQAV
UniProt P03951, 19-387 partner limits assumed: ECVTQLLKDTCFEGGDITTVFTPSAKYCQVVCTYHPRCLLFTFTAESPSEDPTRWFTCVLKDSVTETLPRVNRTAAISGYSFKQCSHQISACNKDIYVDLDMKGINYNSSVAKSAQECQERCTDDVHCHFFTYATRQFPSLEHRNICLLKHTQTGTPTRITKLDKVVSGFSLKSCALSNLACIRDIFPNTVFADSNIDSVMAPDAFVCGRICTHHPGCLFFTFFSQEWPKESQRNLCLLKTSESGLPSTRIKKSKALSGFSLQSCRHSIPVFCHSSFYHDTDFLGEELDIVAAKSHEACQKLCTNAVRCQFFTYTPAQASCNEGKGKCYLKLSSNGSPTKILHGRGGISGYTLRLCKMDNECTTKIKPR

human factor XIa = human factor XIa (Homo sapiens, UniProt P03951); test: Factor XIa Assay; conditions: read-out: FXIa IC50; human factor XIa 0.04 nM, substrate GPR-AFC, 30 min pre-incubation at 25° C., pH 7.4
Experimental: The effectiveness of a compound of the present invention as an inhibitor of Coagulation factor XIa can be determined using a relevant purified serine protease, and an appropriate synthetic substrate. The rate of hydrolysis of the chromogenic or fluorogenic substrate by the relevant serine protease was measured both in the absence and presence of compounds of the present invention. Assays were conducted at rt or at 37° C. […] A decrease in the rate of fluorescence change in the presence of inhibitor is indicative of enzyme inhibition. Such methods are known to one skilled in the art. The results of this assay are expressed as the half-maximal inhibitory concentrations (IC50), or the inhibitory constant, Ki.
Compounds were pre-incubated for 30 min at 25° C. with human (0.04 nM) factor XIa in 50 mM HEPES buffer with 150 mM sodium chloride, 5 mM calcium chloride, 0.1% PEG 8000, pH 7.4. factor XIa enzymatic activity was determined by addition of the substrate glycine-proline-arginine-7-amido-4-trifluoromethylcoumarin (GPR-AFC) and measurement of the fluorescence at 400/505 nm after a 60 min incubation at 25° C. The % inhibition for each data point was calculated from the data and analyzed using the log (inhibitor) vs. response four parameters equation to determine the half-maximal inhibitory concentrations (IC50). […]

pIC50 (Human plasma kallikrein): 7.65 | pIC50 (human factor XIa): 6.27
Structure (SMILES): O=C(Nc1cnn(Cc2cnc(N3CCC3)nc2)c1)c1cncc(-c2c(C(F)(F)F)ccc(Cl)c2F)n1
